Bioassay records from PubChem BioAssay.
uPA generation: blocks generation of uPA at the cell surface; cell surface uPA generation assay, qHTS; Potency, µM (series often up to 38.3 µM), most hits filed as inhibitors; 330,000 compounds, 0.31% hits; active = well fitted inhibition curve with a large enough effect; inconclusive = small, poorly fitted or top-dose-only effect; inactive = no such curve, though single readings can be large or run the other way; tested in mouse RAW 264.7 cells; note: nearly all actives have a fitted effect of over 55% in size
DT40 TDP1 CPT: DT40-hTDP1 cell growth loss with CPT; chicken DT40 Tdp1-/-;hTDP1 cells + 20 nM CPT, ATP luminescence, 48 h; Potency, µM (top dose mostly 46.2 µM), hits mostly inhibitors; 420,000 compounds, 12% hits; AID 686979; note: nearly all actives have a fitted effect of over 55% in size
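Chicken DT40 Tdp1-/- cells complemented with human TDP1, 400 cells/well, exposed to compounds plus 20 nM camptothecin for at least 48 h at 37 C; viability read as ATP content by CellTiter-Glo luminescence.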
miR-21 reporter: raises the signal of a miR-21 reporter | HeLa miR-21 FLuc reporter, luciferase, 48 h | Potency, µM (doses to about 38.3 µM) | 340,000 tested, under 10 active | AID 2288; active = well fitted rising curve with a large enough effect; inconclusive = small, poorly fitted or top-dose-only effect; inactive = no such curve, though single readings can be large or run the other way;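 also: miR-21 action dims this reporter so a rising signal means less miR-21 action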
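HeLa cells endogenously expressing miR-21, stably carrying CMV-driven firefly luciferase with a downstream miR-21 binding site, 2000 cells/well. Titrations up to approximately 40 uM, 48 hours; luciferase luminescence read.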
TDP1 inh: TDP1 (human) enzyme inhibition; Q9NUW8; recombinant TDP1, AlphaScreen DNA substrate cleavage; Potency, µM (series often up to 130 µM), hits mostly inhibitors; 350,000 compounds, 0.28% hits; AID 485290; note: nearly all actives have a fitted effect of over 40% in size
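Tdp1 1 nM final; 15 min RT w/ cpd; substrate 15 nM, 5 min; beads 10 ug/ml, 10 min; AlphaScreen read. Neg ctrl: no enzyme.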
DT40 TDP1 no CPT: qHTS for Inhibitors of human tyrosyl-DNA phosphodiesterase 1 (TDP1): qHTS in cells in absence of CPT | DT40 Tdp1-/- hTDP1 cells, no CPT, ATP luminescence, 48 h | 420,000 compounds, 15% hits | Potency, µM (series often up to 46.2 µM), actives largely listed as inhibitors; note: nearly all actives have a fitted effect of over 55% in size
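Readout: luminescence from CellTiter-Glo after 30 min in the dark at RT. Cells: DT40 Tdp1-/- with stable hTDP1, 400/well. Exposure: compounds alone, ≥48 hr, 37 °C.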
Large screens that a line does not name were inactive. This is a sample that favours compounds with a hit; in the whole collection about 16% have one here. Unless noted, calls come from the whole dose curve; as a rule, active = well fitted curve in the direction sought with a large enough effect; inconclusive = small, poorly fitted or top-dose-only effect, or another doubt; inactive = no such curve, though single readings can be large; an effect the other way counts as inactive or inconclusive.

COc1ccc(C(C(=O)NC(C)(C)C)N(Cc2cccs2)C(=O)CCC(=O)Nc2cc(C)on2)cc1 (stereo not drawn)	DT40 TDP1 CPT inconclusive, DT40 TDP1 no CPT inconclusive
CCc1ccc(C(C(=O)NC(C)(C)CC)N(Cc2ccco2)C(=O)Cn2nnc3ccccc32)cc1 (stereo not drawn)	DT40 TDP1 CPT 18.4µM, DT40 TDP1 no CPT inconclusive
COCCN(C(=O)CCC(=O)Nc1cc(C)on1)C(C(=O)NC1CCCC1)c1ccc(C)cc1 (stereo not drawn)	uPA generation inconclusive, DT40 TDP1 CPT inconclusive, DT40 TDP1 no CPT 0.326µM
CCC(C)(C)NC(=O)C(c1ccc(OC)cc1)N(Cc1cccs1)C(=O)CCC(=O)Nc1cc(C)on1 (stereo not drawn)	DT40 TDP1 CPT 18.4µM, DT40 TDP1 no CPT inconclusive
CC(C)(C)NC(=O)C(c1ccc(O)cc1)N(Cc1ccco1)C(=O)CCC(=O)Nc1ccccn1 (stereo not drawn)	none
C=CCOC(=O)NC(c1ccc(F)c(F)c1)C(C(=O)CCl)C(=O)OC (stereo not drawn)	none (no result: uPA generation, DT40 TDP1 CPT, miR-21 reporter, DT40 TDP1 no CPT)
CCn1c(SCC(=O)Nc2ccc(S(=O)(=O)Nc3ccccn3)cc2)nnc1-c1ccncc1	none
O=C(CNC(=O)c1ccco1)NCc1nc2ccccc2[nH]1	none
CCC(C)(C)NC(=O)C(c1ccccc1)N(Cc1cccs1)C(=O)Cn1nnc2ccccc21 (stereo not drawn)	DT40 TDP1 CPT 18.4µM, DT40 TDP1 no CPT inconclusive (no result: miR-21 reporter, TDP1 inh)
CCC(C)(C)NC(=O)C(c1ccc(C)o1)N(Cc1cccs1)C(=O)Cn1nnc2ccccc21 (stereo not drawn)	DT40 TDP1 CPT inconclusive, DT40 TDP1 no CPT inconclusive
Cc1ccc(CN(C(=O)Cn2nnc3ccccc32)C(C(=O)NCc2ccco2)c2cccs2)cc1 (stereo not drawn)	DT40 TDP1 CPT inconclusive, DT40 TDP1 no CPT 23.1µM
O=C(NCCCn1ccnc1)/C(=C\c1cccnc1)NC(=O)c1ccccc1Br	none
CCOC(=O)c1ccc(N2C(=O)c3n[nH]c(C)c3C2c2ccc(OC)cc2OC)cc1 (stereo not drawn)	DT40 TDP1 CPT inconclusive, DT40 TDP1 no CPT 23.1µM
CCOC(=O)c1ccc(N2C(=O)c3n[nH]c(-c4ccco4)c3C2c2ccc(OC)cc2OC)cc1 (stereo not drawn)	DT40 TDP1 CPT 23.1µM, miR-21 reporter inconclusive, DT40 TDP1 no CPT 18.4µM (no result: uPA generation)
CCOC(=O)c1ccc(N2C(=O)c3n[nH]c(C)c3C2c2ccc(OC)cc2)cc1 (stereo not drawn)	DT40 TDP1 no CPT inconclusive (no result: uPA generation)
COc1ccc(CC2SC(N)=NC2=O)cc1 (stereo not drawn)	none (no result: TDP1 inh)
CC1Cc2ccccc2N1C(=O)CSc1ncccc1C(=O)O (stereo not drawn)	none
Fc1ccc(-c2nc3c4ccccc4ccn3c2Cc2ccccc2)cc1	DT40 TDP1 no CPT inconclusive (no result: uPA generation, miR-21 reporter, TDP1 inh)
Clc1ccc(-c2nc3c4ccccc4ccn3c2Cc2ccccc2)cc1	DT40 TDP1 CPT 16.4µM, DT40 TDP1 no CPT 10.3µM (no result: uPA generation, miR-21 reporter, TDP1 inh)
Brc1ccc(-c2nc3c4ccccc4ccn3c2Cc2ccccc2)cc1	DT40 TDP1 CPT 16.4µM, DT40 TDP1 no CPT 8.2µM (no result: uPA generation, miR-21 reporter, TDP1 inh)
O=S(=O)(c1ccc(Br)cc1)N1CCOC12CCCCC2	none
COc1ccc(/C=N/OCC(=O)N=Nc2c(O)[nH]c3ccc(Br)cc23)cc1OC	DT40 TDP1 CPT 25.9µM, DT40 TDP1 no CPT 23.1µM
Cc1cc(C)n(CCC(=O)N=Nc2c(O)[nH]c3ccc(Br)cc23)n1	DT40 TDP1 CPT inconclusive, DT40 TDP1 no CPT inconclusive
COc1ccc(/C(C)=N/OCC(=O)N=Nc2c(O)[nH]c3ccc(Br)cc23)cc1	DT40 TDP1 CPT inconclusive, DT40 TDP1 no CPT 18.4µM
CN(C)c1nc(Cl)nc(N(C#N)CCOc2ccccc2)n1	none
CS(=O)(=O)c1ccc(C(=O)OCc2nnc(-c3ccc(Cl)cc3)o2)cc1[N+](=O)[O-]	DT40 TDP1 CPT 3.26µM, DT40 TDP1 no CPT 4.61µM
CC(=O)c1c(C)[nH]c(C(=O)OCC(=O)NNC(=O)c2ccc([N+](=O)[O-])cc2)c1C	none (no result: miR-21 reporter)
CC(=O)c1c(C)[nH]c(C(=O)OCc2nnc(-c3ccc([N+](=O)[O-])cc3)o2)c1C	DT40 TDP1 CPT 23.1µM, DT40 TDP1 no CPT 14.6µM (no result: miR-21 reporter)
O=C(CN1C(=O)NC2(CCOc3ccccc32)C1=O)c1ccc(Cl)cc1 (stereo not drawn)	none (no result: miR-21 reporter)
COc1ccc(CCNS(=O)(=O)c2cccs2)cc1	none
COc1cccc(-c2cn(C[C@H]3CC[C@@H]([C@@H]4CC[C@H](Cn5cc(-c6cccc(OC)c6)nn5)O4)O3)nn2)c1	DT40 TDP1 CPT inconclusive, DT40 TDP1 no CPT 16.4µM (no result: TDP1 inh)
O=C1c2ccccc2C(=O)N1CCCCc1cn(C[C@H]2CC[C@@H]([C@@H]3CC[C@H](Cn4cc(CCCCN5C(=O)c6ccccc6C5=O)nn4)O3)O2)nn1	DT40 TDP1 CPT 16.4µM, DT40 TDP1 no CPT 16.4µM (no result: miR-21 reporter)
O=C1c2ccccc2C(=O)N1CCCc1cn(C[C@H]2CC[C@@H]([C@@H]3CC[C@H](Cn4cc(CCCN5C(=O)c6ccccc6C5=O)nn4)O3)O2)nn1	none (no result: TDP1 inh)
c1ccc(SCc2cn(C[C@H]3CC[C@@H]([C@@H]4CC[C@H](Cn5cc(CSc6ccccc6)nn5)O4)O3)nn2)cc1	DT40 TDP1 CPT inconclusive, DT40 TDP1 no CPT 16.4µM (no result: TDP1 inh)
c1ccc(Cn2cc(CSc3ccccc3)nn2)cc1	none
NC(=O)c1sc2nc3c(c(-c4ccco4)c2c1N)CCCC3	DT40 TDP1 CPT inconclusive, DT40 TDP1 no CPT 16.4µM (no result: TDP1 inh)
N#Cc1sc2nc3c(c(-c4ccco4)c2c1N)CCCC3	DT40 TDP1 CPT inconclusive, DT40 TDP1 no CPT 23.1µM
Nc1c(C(=O)NCC2CCCO2)sc2nc3c(c(-c4ccco4)c12)CC/C3=C\c1ccco1 (stereo not drawn)	DT40 TDP1 CPT inconclusive, TDP1 inh inconclusive, DT40 TDP1 no CPT 25.9µM
Cc1ccccc1NC(=O)c1sc2nc3c(c(-c4ccco4)c2c1N)CCC3	DT40 TDP1 CPT inconclusive, DT40 TDP1 no CPT inconclusive
Cc1ccc(C2=C(O)C(=O)C(c3ccc(C)cc3)=C(O)C2=O)cc1	DT40 TDP1 CPT inconclusive, DT40 TDP1 no CPT 11.6µM (no result: miR-21 reporter, TDP1 inh)
CC1=C(O)C(=O)C(C2=C(O)C(=O)C(C)=C(O)C2=O)=C(O)C1=O	none (no result: miR-21 reporter, TDP1 inh)
O=C(/C=C/N1CCOCC1)c1ccc(-c2ccccc2)cc1	DT40 TDP1 CPT inconclusive, DT40 TDP1 no CPT 20.6µM
Nc1c2nc(-c3ccccc3)[nH]c(=O)c2nc(=O)n1-c1ccccc1	DT40 TDP1 CPT inconclusive, DT40 TDP1 no CPT inconclusive
COc1ccc(C(C(=O)NCC2CCCO2)N(Cc2cccs2)C(=O)c2snc(C(N)=O)c2N)cc1OC (stereo not drawn)	none (no result: TDP1 inh)
CCOc1ccc(C(C(=O)NCC2CCCO2)N(Cc2cccs2)C(=O)c2snc(C(N)=O)c2N)cc1 (stereo not drawn)	DT40 TDP1 CPT 23.1µM, DT40 TDP1 no CPT 9.2µM
CCOc1ccc(C(C(=O)NCC2CCCO2)N(C(=O)c2snc(C(N)=O)c2N)c2ccccc2F)cc1 (stereo not drawn)	DT40 TDP1 CPT 20.6µM, DT40 TDP1 no CPT inconclusive (no result: TDP1 inh)
